The assay addresses human BACE1 (Homo sapiens, UniProt P56817). Put plainly: Fluorescent kinetic assay: Evaluation of BACE-1 Binding Affinity of Test Compounds. The settings on record: read-out: BACE-1 IC50 μM; 10 nM enzyme, 25 μM substrate WABC-6, 50 mM Na-Acetate pH 4.5, room temperature.

The chains behind the UniProt entries cited, without tags or fusion partners. Residues count along the entry.
UniProt P56817, 46-501 limits assumed: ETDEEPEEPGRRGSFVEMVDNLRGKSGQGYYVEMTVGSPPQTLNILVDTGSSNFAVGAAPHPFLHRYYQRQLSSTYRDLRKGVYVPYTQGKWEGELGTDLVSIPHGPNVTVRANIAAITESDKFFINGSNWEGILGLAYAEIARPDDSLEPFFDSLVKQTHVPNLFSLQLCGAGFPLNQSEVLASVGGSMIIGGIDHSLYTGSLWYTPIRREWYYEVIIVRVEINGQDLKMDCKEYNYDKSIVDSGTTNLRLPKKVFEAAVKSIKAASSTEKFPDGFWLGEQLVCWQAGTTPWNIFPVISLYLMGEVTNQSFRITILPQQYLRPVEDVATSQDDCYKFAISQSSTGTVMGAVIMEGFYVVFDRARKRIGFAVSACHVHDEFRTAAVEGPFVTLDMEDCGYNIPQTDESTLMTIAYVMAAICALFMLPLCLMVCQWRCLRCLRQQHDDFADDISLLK

The structures appear in SMILES notation.

With `CCn1cc(C2(c3cccc(-c4cccnc4F)c3)N=C(N)N(C)C2=O)cc1C(C)=O` (stereo not shown), the IC50 – broadly, the concentration at which inhibition is half-maximal – fell in the range of 0.01 to 0.1 µM. Consider `CN1C(=O)C(c2ccsc2)(c2cccc(-c3cccc(F)c3F)c2)N=C1N` (stereo not shown), for which the IC50 lay within 0.11 to 1 µM. As for `CCn1ccc(C2(c3cccc(-c4cccnc4F)c3)N=C(N)N(C)C2=O)c1` (stereo not shown), the figure is 0.11 to 1 µM; as for `CCCOc1cccc(C2(c3ccsc3)N=C(N)N(C)C2=O)c1` (stereo not shown), 0.11 to 1 µM; as for `COc1ccc(OC)c(-c2cccc(C3(c4ccsc4)N=C(N)N(C)C3=O)c2)c1` (stereo not shown), 0.01 to 0.1 µM. Take `Cc1ccc(C2(c3cccc(-c4cccnc4)c3)N=C(N)N(C)C2=O)s1` (stereo not shown): the concentration for half-maximal inhibition (IC50) lay in the range of 0.11 to 1 µM. With `CN1C(=O)C(c2cccc(-c3cccnc3F)c2)(c2ccn(CC(F)(F)F)c2)N=C1N` (stereo not shown) the figure was 0.11 to 1 µM; with `CCC(=O)c1[nH]ccc1C1(c2ccc(OC(F)F)cc2)N=C(N)N(C)C1=O` (stereo not shown), more than 1 µM. With `CN1C(=O)C(c2ccsc2)(c2cccc(-c3cccc(F)c3)c2)N=C1N` (stereo not shown) the figure was 0.11 to 1 µM. For `CN1C(=O)C(c2ccsc2)(c2cccc(-c3cccc(C#N)c3)c2)N=C1N` (stereo not shown), the IC50 is 0.01 to 0.1 µM. As for `CCCC(=O)c1cc(C2(c3cccc(-c4cccnc4F)c3)N=C(N)N(C)C2=O)cn1CC` (stereo not shown), the figure is 0.01 to 0.1 µM; as for `CN1C(=O)C(c2cccc(-c3cccnc3)c2)(c2cccs2)N=C1N` (stereo not shown), 0.01 to 0.1 µM. With `CN1C(=O)C(c2ccsc2)(c2cccc(-c3ccc(F)nc3)c2)N=C1N` (stereo not shown) the figure was 0.11 to 1 µM; with `CN1C(=O)C(c2cccc(-c3cc(F)ccc3F)c2)(c2cccs2)N=C1N` (stereo not shown), 0.11 to 1 µM; with `CN1C(=O)C(c2ccsc2)(c2cccc(-c3cc(F)ccc3F)c2)N=C1N` (stereo not shown), 0.11 to 1 µM. As for `CN1C(=O)C(c2ccsc2)(c2cccc(-c3cc(F)cc(F)c3)c2)N=C1N` (stereo not shown), the figure is 0.11 to 1 µM. Consider `CN1C(=O)C(c2ccsc2)(c2cccc(-c3cccnc3)c2)N=C1N` (stereo not shown), for which the IC50 was 0.01 to 0.1 µM. With `Cc1ccc(C2(c3cccc(-c4cncnc4)c3)N=C(N)N(C)C2=O)s1` (stereo not shown) the figure was 0.11 to 1 µM.

Turning to `CN1C(=O)C(c2ccsc2)(c2cccc(-c3cncnc3)c2)N=C1N` (stereo not shown), the IC50 lay within 0.01 to 0.1 µM.

Values taken from patent US7705030B2, “Amino-5-(5-membered)hetero-arylimidazolone compounds and the use thereof for β-secretase modulation” (Wyeth LLC, priority 2005, dated 2010).
